Experimental data as given in publication PMC11284788, “NN1213 – A Potent, Long-Acting, and Selective Analog of Human Amylin” (Journal of Medicinal Chemistry, 2024).

Key:
[1] = target: T1, hAMY3R (Homo sapiens, UniProt O60896+P30988); experiment: cAMP-responsive element luciferase reporter assay, human AMY3R; assay type: cell-based; parameters: expressed in transfected cells; settings: ratio of luciferase EC50 values
T1 sequence (P30988 25-474): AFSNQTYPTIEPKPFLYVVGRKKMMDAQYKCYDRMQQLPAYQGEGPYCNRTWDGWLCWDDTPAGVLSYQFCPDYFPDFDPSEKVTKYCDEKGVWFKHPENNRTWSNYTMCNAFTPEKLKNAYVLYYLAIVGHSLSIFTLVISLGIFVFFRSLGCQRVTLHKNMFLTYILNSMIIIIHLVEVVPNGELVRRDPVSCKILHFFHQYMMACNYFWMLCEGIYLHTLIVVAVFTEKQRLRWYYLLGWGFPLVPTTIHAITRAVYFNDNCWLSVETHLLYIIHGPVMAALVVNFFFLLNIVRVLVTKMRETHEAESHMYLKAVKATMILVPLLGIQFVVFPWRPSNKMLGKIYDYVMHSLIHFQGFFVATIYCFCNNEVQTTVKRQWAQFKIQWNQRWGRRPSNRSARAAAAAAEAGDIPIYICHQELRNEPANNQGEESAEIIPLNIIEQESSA
T1 sequence (O60896 24-148 partner): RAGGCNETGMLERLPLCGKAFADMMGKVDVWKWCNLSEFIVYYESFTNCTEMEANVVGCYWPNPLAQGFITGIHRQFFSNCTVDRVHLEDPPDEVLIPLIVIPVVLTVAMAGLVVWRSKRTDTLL

[2] = target: T2, rAMY3R (Rattus norvegicus, UniProt P32214+Q9JJ73); experiment: scintillation proximity binding assay, rAMY3R membranes; parameters: expressed in transfected cells; host or cells: BHK tk-ts 13, transient co-transfection (FuGENE 6); settings: ratio of binding IC50 values
T2 sequence (P32214 25-479 isoform P32214-2 limits assumed): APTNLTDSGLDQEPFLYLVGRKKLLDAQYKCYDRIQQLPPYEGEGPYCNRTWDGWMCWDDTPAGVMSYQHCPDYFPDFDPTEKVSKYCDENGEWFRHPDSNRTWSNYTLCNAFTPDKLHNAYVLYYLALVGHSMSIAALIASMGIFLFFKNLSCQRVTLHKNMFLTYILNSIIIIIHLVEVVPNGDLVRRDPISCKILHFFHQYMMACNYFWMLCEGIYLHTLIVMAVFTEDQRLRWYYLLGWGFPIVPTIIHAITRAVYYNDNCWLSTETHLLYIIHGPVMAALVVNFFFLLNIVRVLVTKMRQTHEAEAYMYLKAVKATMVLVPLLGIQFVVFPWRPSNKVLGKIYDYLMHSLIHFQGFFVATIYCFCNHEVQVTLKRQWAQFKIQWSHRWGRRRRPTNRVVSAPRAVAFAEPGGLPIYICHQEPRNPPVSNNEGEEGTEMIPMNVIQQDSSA
T2 sequence (Q9JJ73 23-147 partner): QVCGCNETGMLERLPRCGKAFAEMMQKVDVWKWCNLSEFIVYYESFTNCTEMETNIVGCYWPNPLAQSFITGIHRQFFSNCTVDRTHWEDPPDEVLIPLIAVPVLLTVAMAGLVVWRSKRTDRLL
Experimental: (§1) The apparent binding affinities were determined using a scintillation proximity assay with beads from PerkinElmer and cell membranes containing the AMY3R or CTRs. […] Membranes were harvested and membranes were prepared and kept at −80 °C until use. The assay was performed in a 384-well Optiplate (PerkinElmer). Membranes were mixed with scintillation proximity assay beads in a 1:1 ratio. […] Samples were analyzed on a TopCounter (Packard). The IC50 values were calculated using GraphPad Prism. See Supporting Information S7: SAR Screening Assay Methods (Binding Assays (Human and Rat)) for more information.
(§2) Binding Assays (Human and Rat). Brief descriptions of the methods used to determine binding affinities for SAR analysis are described below. Curves and IC50 values were plotted and calculated in GraphPad Prism using nonlinear regression (one site binding competition analysis), with pIC50 values […]
(§3) containing 20 mM Na-HEPES and 0.1 mM EDTA (pH 7.4, buffer 2). The resulting pellet was re-suspended in buffer 2 and protein concentration was measured (BCA protein assay, Pierce). […]
(§4) prior to centrifugation (1500 rpm, 10 min). Samples were analyzed on TopCounter (Packard). […]
(§5) 7.4, buffer 2). The resulting pellet was re-suspended in buffer 2 and protein concentration was measured (BCA protein assay, Pierce). […]

[3] = target: T1, hAMY3R; experiment: scintillation proximity binding assay, hAMY3R membranes; parameters: expressed in transfected cells; host or cells: BHK tk-ts 13, transient co-transfection; membranes for the SPA, whole cells for the species-specific assays; settings: ratio of binding IC50 values
Experimental: as §1, §2, §3, §4, §5

For `CC[C@H](C)[C@H](NC(=O)[C@H](C)NC(=O)CNC(=O)[C@H](Cc1ccccc1)NC(=O)[C@H](CC(N)=O)NC(=O)[C@@H]1CCCN1C(=O)[C@H](CO)NC(=O)[C@H](CO)NC(=O)[C@H](Cc1c[nH]cn1)NC(=O)[C@H](CCCNC(=N)N)NC(=O)[C@H](CC(C)C)NC(=O)[C@H](Cc1ccccc1)NC(=O)[C@H](CC(N)=O)NC(=O)[C@H](C)NC(=O)[C@H](CC(C)C)NC(=O)[C@H](CCCNC(=N)N)NC(=O)[C@H](CCC(N)=O)NC(=O)[C@@H](NC(=O)[C@H](C)NC(=O)[C@@H]1CSSC[C@H](NC(=O)[C@H](CCCCN)NC(=O)COCCOCCNC(=O)CC[C@H](NC(=O)CCCCCCCCCCCCCCCCCCC(=O)O)C(=O)O)C(=O)N[C@@H](CC(N)=O)C(=O)N[C@@H]([C@@H](C)O)C(=O)N[C@@H](C)C(=O)N[C@@H]([C@@H](C)O)C(=O)N1)[C@@H](C)O)C(=O)N1CCC[C@H]1C(=O)N[C@@H](CO)C(=O)N[C@@H](CO)C(=O)N[C@H](C(=O)N[C@@H](CC(N)=O)C(=O)N[C@H](C(=O)NCC(=O)N[C@@H](CO)C(=O)N[C@@H](CCCNC(=N)N)C(=O)N[C@H](C(=O)N[C@@H](Cc1ccc(O)cc1)C(N)=O)[C@@H](C)O)C(C)C)[C@@H](C)O` [Peptide 15], the “ratio hCTR/hAMY3R” value [1] was 52, the “ratio rCTR/rAMY3R” value [2] was 88 and the “ratio hCTR/hAMY3R” value [3] was 99.
